Experimental data taken from US6759420B1, “Arylalkanoyl derivatives, processes for their preparation, their use and pharmaceutical compositions containing them” (Aventis Pharma Deutschland GmbH, priority 1999, dated 2004).

By UniProt entry, the sequences of proteins in these tests, tags left out. Residues count along the entry.
UniProt P00742, 41-179 limits assumed: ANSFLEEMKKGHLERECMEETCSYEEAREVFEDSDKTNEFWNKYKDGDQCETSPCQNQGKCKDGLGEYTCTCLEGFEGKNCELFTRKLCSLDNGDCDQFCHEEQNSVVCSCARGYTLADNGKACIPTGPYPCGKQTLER
UniProt P00742, 235-488 limits assumed: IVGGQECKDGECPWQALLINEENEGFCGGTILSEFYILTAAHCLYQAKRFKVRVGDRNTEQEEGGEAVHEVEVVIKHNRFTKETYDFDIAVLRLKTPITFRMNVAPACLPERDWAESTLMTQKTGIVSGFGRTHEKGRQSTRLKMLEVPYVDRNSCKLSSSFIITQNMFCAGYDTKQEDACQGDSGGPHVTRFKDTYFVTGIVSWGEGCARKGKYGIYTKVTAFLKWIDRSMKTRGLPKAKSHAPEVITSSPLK

Biological target: factor Xa (Homo sapiens, UniProt P00742)
Test: Factor Xa assay (Test 1a), chromogenic
Conditions: read-out: Ki (Xa); in vitro factor Xa assay Test 1a; human factor Xa 0.5 nM, substrate S-2765 140 μM, 25° C.; Ki from IC50 corrected for substrate competition; tested form: trifluoroacetic acid salt
From the text: The ability of a compound of formula (I) to inhibit factor Xa, thrombin, plasmin, elastase, and trypsin may be assessed by determining the concentration of compound of formula (I) that inhibits enzyme activity by 50% (IC50). Purified enzymes are used in chromogenic assays. To determine the inhibition constant, the IC50 value is corrected for competition with substrate using the formula:
Ki=IC50×(1/{1+((substrate concentration)/substrate Km)})
where Km is the Michaelis-Menten constant. Y. -C. Chen and W. H. Prusoff, Biochem. Pharmacol. 22: […] (1973), which is incorporated herein by reference.
TBS-PEG buffer (50 mM Tris-Cl, pH 7.8, 200 mM NaCl, 0.05% (w/v) PEG-8000, 0.02% (w/v) NaN3) is used for this assay. […]
The assays are performed by pre-incubating the compound of formula (I) plus enzyme for 10 min, then the assay is initiated by adding substrate to obtain a final volume of 100 μl. The initial velocity of chromogenic substrate hydrolysis is measured by the change in absorbance at 405 nm using a Bio-tek Instruments kinetic plate reader (Ceres UV900HDi) at 25° C. during the linear portion of the time course (usually 1.5 min after addition of substrate). […]

Structure (SMILES) | Ki
CCC(=N)N1CCC(CNC(=O)[C@@H](NC(=O)C(Cc2ccc(C(=N)N)cc2)c2cccc(C(F)(F)F)c2)C2CCCCC2)CC1 (single isomer, unassigned) [262] | 19 nM
CCC(=N)N1CCC(CNC(=O)[C@@H](NC(=O)C(Cc2ccc(C(=N)N)cc2)c2cccc(C(F)(F)F)c2)C2CCCCC2)CC1 (single isomer, unassigned) [263] | 25 nM
